Experimental data reported in ChEMBL document CHEMBL1151413, “Isolation and pharmacological characterization of vernolepin” (J Nat Prod, 1983).

Tested on: Ileum
Assay: Inhibition of histamine-induced guinea pig ileum contraction
Assay type: functional, tissue-based
Conditions: Cavia porcellus

With `C=C[C@@]12COC(=O)C(=C)[C@@H]1[C@H]1OC(=O)C(=C)[C@@H]1[C@@H](O)C2` [VERNOLEPIN] the Activity was “tde”.
